Laboratory results published in ChEMBL document CHEMBL1255339, “Biochemical characterization of SHV-55, an extended-spectrum class A beta-lactamase from Klebsiella pneumoniae” (Antimicrob Agents Chemother, 2008).

B1: Beta-lactamase SHV-1 (Klebsiella pneumoniae), P0AD64 (protein)
chain: MRYIRLCIISLLATLPLAVHASPQPLEQIKLSESQLSGRVGMIEMDLASGRTLTAWRADERFPMMSTFKVVLCGAVLARVDAGDEQLERKIHYRQQDLVDYSPVSEKHLADGMTVGELCAAAITMSDNSAANLLLATVGGPAGLTAFLRQIGDNVTRLDRWETELNEALPGDARDTTTPASMAATLRKLLTSQRLSARSQRQLLQWMVDDRVAGPLIRSVLPAGWFIADKTGAGERGARGIVALLGPNNKAERIVVIYLRDTPASMAERNQQIAGIGAALIEHWQR
B2: Beta-lactamase SHV-55 (Klebsiella pneumoniae), Q4TVR4 (protein)
chain: B1 chain with Y3F, G234S, E235K

Tests used:
[1] = substrate: CC(C)(O/N=C(\C(=O)N[C@@H]1C(=O)N2C(C(=O)[O-])=C(C[n+]3ccccc3)CS[C@H]12)c1csc(N)n1)C(=O)O; experiment: (§1) Activity of Klebsiella pneumoniae Beta-Lactamase SHV-1
[2] = substrate: CO/N=C(\C(=O)N[C@@H]1C(=O)N2C(C(=O)O)=C(COC(C)=O)CS[C@H]12)c1csc(N)n1; experiment: as §1
[3] = substrate: CC1(C)S[C@@H]2[C@H](NC(=O)[C@H](N)c3ccc(O)cc3)C(=O)N2[C@H]1C(=O)O; experiment: as §1
[4] = substrate: CC(=O)OCC1=C(C(=O)O)N2C(=O)[C@@H](NC(=O)Cc3cccs3)[C@H]2SC1; experiment: Ratio of Kcat to Km for Klebsiella pneumoniae Beta-Lactamase SHV-1
[5] = substrate: CC(C)(O/N=C(\C(=O)N[C@@H]1C(=O)N2C(C(=O)[O-])=C(C[n+]3ccccc3)CS[C@H]12)c1csc(N)n1)C(=O)O; experiment: (§2) Activity of Klebsiella pneumoniae Beta-Lactamase SHV-55
[6] = substrate: CO/N=C(\C(=O)N[C@@H]1C(=O)N2C(C(=O)O)=C(COC(C)=O)CS[C@H]12)c1csc(N)n1; experiment: as §2
[7] = substrate: CC1(C)S[C@@H]2[C@H](NC(=O)Cc3ccccc3)C(=O)N2[C@H]1C(=O)O; experiment: as §2
[8] = substrate: CC1(C)S[C@@H]2[C@H](NC(=O)[C@H](N)c3ccc(O)cc3)C(=O)N2[C@H]1C(=O)O; experiment: as §2
[9] = substrate: CO/N=C(\C(=O)N[C@@H]1C(=O)N2C(C(=O)O)=C(COC(N)=O)CS[C@H]12)c1ccco1; experiment: as §2
[10] = substrate: CC(=O)OCC1=C(C(=O)O)N2C(=O)[C@@H](NC(=O)Cc3cccs3)[C@H]2SC1; experiment: as §2
[11] = substrate: CC(C)(O/N=C(\C(=O)N[C@@H]1C(=O)N2C(C(=O)[O-])=C(C[n+]3ccccc3)CS[C@H]12)c1csc(N)n1)C(=O)O; experiment: (§3) Ratio of Kcat to Km for Klebsiella pneumoniae Beta-Lactamase SHV-55
[12] = substrate: CO/N=C(\C(=O)N[C@@H]1C(=O)N2C(C(=O)O)=C(COC(C)=O)CS[C@H]12)c1csc(N)n1; experiment: as §3
[13] = substrate: CC1(C)S[C@@H]2[C@H](NC(=O)[C@H](N)c3ccc(O)cc3)C(=O)N2[C@H]1C(=O)O; experiment: as §3
[14] = substrate: CC(=O)OCC1=C(C(=O)O)N2C(=O)[C@@H](NC(=O)Cc3cccs3)[C@H]2SC1; experiment: as §3

Row | Protein | Km [1] [µM] | kcat [1] [s⁻¹] | Km [2] [µM] | kcat [2] [s⁻¹] | kcat [3] [s⁻¹] | kcat/Km [4] [M⁻¹ s⁻¹] | Km [5] [µM] | kcat [5] [s⁻¹] | Km [6] [µM] | kcat [6] [s⁻¹] | kcat [7] [s⁻¹] | Km [8] [µM] | kcat [8] [s⁻¹] | Km [9] [µM] | Km [10] [µM] | kcat [10] [s⁻¹] | kcat/Km [11] [M⁻¹ s⁻¹] | kcat/Km [12] [M⁻¹ s⁻¹] | kcat/Km [13] [M⁻¹ s⁻¹] | kcat/Km [14] [M⁻¹ s⁻¹]
1 | B1 | 142 | < 0.1 | 257 | < 0.1 | 1040 | 3.2e+06 |  |  |  |  |  |  |  |  |  |  |  |  |  | 
2 | B2 |  |  |  |  |  |  | 58 | 9 | 21 | 24 | 23 | 10 | 23 | 23 | 9 | 38 | 200000 | 1.1e+06 | 2.5e+06 | 4.4e+06

Changes are numbered by the printed parent chain.
